Measured values from PubChem BioAssay AID504326 (The Scripps Research Institute Molecular Screening Center, 2011).
This is a selection; strong and weak results do not stand in their true shares. The source made the active and inactive calls. Cut-off read from the data, not from the text of the source: active = activation above about 18%; inactive = the rest.

By UniProt entry, the sequences of proteins in these tests, tags left out.
UniProt P35372, whole entry, looked up: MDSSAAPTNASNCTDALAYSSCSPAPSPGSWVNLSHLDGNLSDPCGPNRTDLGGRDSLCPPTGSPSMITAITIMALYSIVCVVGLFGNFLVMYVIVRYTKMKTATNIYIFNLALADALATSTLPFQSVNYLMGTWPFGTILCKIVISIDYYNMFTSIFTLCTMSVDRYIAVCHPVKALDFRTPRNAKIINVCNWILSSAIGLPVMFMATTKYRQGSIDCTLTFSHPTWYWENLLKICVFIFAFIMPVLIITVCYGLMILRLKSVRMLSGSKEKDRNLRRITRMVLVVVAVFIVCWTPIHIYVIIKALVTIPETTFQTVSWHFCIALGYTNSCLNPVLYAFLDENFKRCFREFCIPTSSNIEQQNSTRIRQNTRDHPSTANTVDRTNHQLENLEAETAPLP
UniProt P41143, whole entry, looked up: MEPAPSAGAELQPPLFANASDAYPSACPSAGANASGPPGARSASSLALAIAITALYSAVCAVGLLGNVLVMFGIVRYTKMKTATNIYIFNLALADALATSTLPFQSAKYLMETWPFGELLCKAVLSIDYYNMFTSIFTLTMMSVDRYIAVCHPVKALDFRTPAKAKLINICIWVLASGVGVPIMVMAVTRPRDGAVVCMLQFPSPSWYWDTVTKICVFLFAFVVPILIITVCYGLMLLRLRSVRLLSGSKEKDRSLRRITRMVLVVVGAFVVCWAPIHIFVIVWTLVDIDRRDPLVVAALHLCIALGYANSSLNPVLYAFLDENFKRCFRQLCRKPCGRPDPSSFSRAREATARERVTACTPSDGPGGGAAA

What follows are compounds tested against Mu-type opioid receptor (Homo sapiens) + Delta-type opioid receptor (Homo sapiens) (UniProt P35372+P41143) (assay: agonists of OPRM1-OPRD1 heterodimerization, primary screen, cell-based, luminescence (AID 504326;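 note: 0% = vehicle-treated cells and 100% = reference agonist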)). Details: cells, at 9.3 µM, stronger effect = higher value.

Compound | activation
CC(O)c1nc2ccccc2n1CC(=O)N1CCN(c2ccccc2)CC1 (stereo unspecified) | inactive: 1.19%
